Assay results: ChEMBL document CHEMBL3091323, “Investigation of quinazolines as inhibitors of breast cancer resistance protein (ABCG2)” (Bioorg Med Chem, 2013)

Amino acid sequences for entries named in this document (tags omitted). A change or cut given only in a name is not applied to a line headed by its entry.
UniProt Q9UNQ0: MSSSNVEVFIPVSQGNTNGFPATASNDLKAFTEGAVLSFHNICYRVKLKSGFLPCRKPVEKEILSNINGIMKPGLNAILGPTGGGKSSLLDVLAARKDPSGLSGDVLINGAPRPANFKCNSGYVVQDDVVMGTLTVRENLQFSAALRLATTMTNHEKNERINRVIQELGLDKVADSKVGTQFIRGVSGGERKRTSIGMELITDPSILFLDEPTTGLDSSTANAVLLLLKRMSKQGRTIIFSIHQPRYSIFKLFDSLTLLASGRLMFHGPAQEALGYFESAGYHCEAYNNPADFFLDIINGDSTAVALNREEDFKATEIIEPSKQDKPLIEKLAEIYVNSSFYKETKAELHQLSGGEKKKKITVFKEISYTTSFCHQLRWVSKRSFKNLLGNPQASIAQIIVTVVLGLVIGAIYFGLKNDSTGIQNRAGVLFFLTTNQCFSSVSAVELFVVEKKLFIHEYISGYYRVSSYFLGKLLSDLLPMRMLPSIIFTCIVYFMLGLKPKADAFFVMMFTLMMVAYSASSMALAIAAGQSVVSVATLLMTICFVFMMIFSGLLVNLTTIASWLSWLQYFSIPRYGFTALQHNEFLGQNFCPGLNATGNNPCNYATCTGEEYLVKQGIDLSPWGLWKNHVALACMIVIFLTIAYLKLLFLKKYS

Molecular target: Broad substrate specificity ATP-binding cassette transporter ABCG2 (Homo sapiens, UniProt Q9UNQ0)
Assay: Inhibition of human BCRP expressed in MDCK2 cells assessed as Hoechst 33342 accumulation treated 30 mins before Hoechst 33342 addition measured up to 120 mins by fluorescence assay
Assay type: cell-based, MDCK-II

Compound: COc1cc2ncnc(Nc3ccc(F)c(Cl)c3)c2cc1OCCCN1CCOCC1 [GEFITINIB]
- IC50: 3.19 µM
